Results from PubChem BioAssay (NCI).
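Tested at 5 concentrations; 48 h exposure; 96-well plates; endpoints linearly interpolated, else capped at highest concentration. GI50: concentration for 50% inhibition of growth. TGI denotes the concentration required for complete inhibition of growth.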

Legend:
Assay in all cases: NCI tumour cell line growth inhibition, 48 h
[1] = system: COLO 205 colon
[2] = system: NCI-H522 lung
[3] = system: SF-295 CNS
[4] = system: 786-0 renal
[5] = system: HT29 colon
[6] = system: MDA-MB-231 breast
[7] = system: SK-MEL-5 melanoma
[8] = system: K-562 leukemia
[9] = system: NCI-H322M lung
[10] = system: HCT-15 colon
[11] = system: A549 NSCLC
[12] = system: A498 renal
[13] = system: HCT-116 colon
[14] = system: SK-MEL-28 melanoma
[15] = system: SW-620 colon
[16] = system: U251 CNS
[17] = system: HOP-62 NSCLC
[18] = system: DU-145 prostate
[19] = system: CAKI-1 renal
[20] = system: OVCAR-3 ovarian
[21] = system: SNB-75 CNS
[22] = system: MDA-N
[23] = system: MALME-3M melanoma
[24] = system: SK-MEL-2 melanoma
[25] = system: SN12C renal
[26] = system: EKVX NSCLC
[27] = system: HCC-2998 colon
[28] = system: BT-549 breast
[29] = system: M14 melanoma
[30] = system: CCRF-CEM leukemia
[31] = system: OVCAR-5 ovarian
[32] = system: MDA-MB-435
[33] = system: HS 578T breast
[34] = system: UACC-62 melanoma
[35] = system: IGROV1 ovarian
[36] = system: T-47D breast
[37] = system: MOLT-4 leukemia
[38] = system: HL-60(TB) leukemia
[39] = system: HOP-92 NSCLC
[40] = system: UACC-257 melanoma
[41] = system: MCF7 breast
[42] = system: NCI-H23 lung
[43] = system: NCI-H226 lung
[44] = system: LOX IMVI melanoma
[45] = system: PC-3 prostate
[46] = system: RXF 393 renal
[47] = system: SF-539 CNS
[48] = system: KM12 colon
[49] = system: TK-10 renal
[50] = system: NCI-H460 lung
[51] = system: NCI/ADR-RES ovarian
[52] = system: OVCAR-8 ovarian
[53] = system: SF-268 CNS
[54] = system: ACHN renal
[55] = system: SNB-19 CNS
[56] = system: RPMI-8226 leukemia
[57] = system: UO-31 renal
[58] = system: SK-OV-3 ovarian
[59] = system: OVCAR-4 ovarian

Compound: CC1=C[C@H]2O[C@@H]3[C@H](O)[C@@H](O)[C@](C)(C2(COC(=O)CCl)CC1)[C@@]31CO1 (stereo partly specified)
- GI50 [1]: 15.2 nM
- TGI [1]: 38.3 nM
- GI50 [2]: < 10 nM
- TGI [2]: 15.8 nM
- GI50 [3]: 20.6 nM
- TGI [3]: 189 nM
- GI50 [4]: 33.1 nM
- TGI [4]: 142 nM
- GI50 [5]: 24.2 nM
- TGI [5]: 121 nM
- GI50 [6]: 85.7 nM
- TGI [6]: 324 nM
- GI50 [7]: 12.4 nM
- TGI [7]: 30.2 nM
- GI50 [8]: 16.3 nM
- GI50 [9]: 89.2 nM
- TGI [9]: 1110 nM
- GI50 [10]: 252 nM
- TGI [10]: 1010 nM
- GI50 [11]: 29.3 nM
- TGI [11]: 297 nM
- GI50 [12]: 16.5 nM
- TGI [12]: 39.3 nM
- GI50 [13]: 12.1 nM
- TGI [13]: 25.3 nM
- GI50 [14]: 13.8 nM
- TGI [14]: 37.7 nM
- GI50 [15]: 31.5 nM
- TGI [15]: 486 nM
- TGI [16]: 1350 nM
- GI50 [17]: 92 nM
- TGI [17]: 1910 nM
- TGI [18]: 3840 nM
- GI50 [19]: 58.1 nM
- TGI [19]: 491 nM
- GI50 [20]: 17.1 nM
- TGI [20]: 66.3 nM
- GI50 [21]: 19.3 nM
- TGI [21]: 69.9 nM
- GI50 [22]: 23.1 nM
- TGI [22]: 107 nM
- GI50 [23]: 11.1 nM
- TGI [23]: 20.6 nM
- GI50 [24]: 29.6 nM
- TGI [24]: 148 nM
- GI50 [25]: 37.1 nM
- TGI [25]: 193 nM
- GI50 [26]: 45.9 nM
- TGI [26]: 283 nM
- GI50 [27]: 14.3 nM
- TGI [27]: 35.5 nM
- GI50 [28]: 18.1 nM
- TGI [28]: 50.7 nM
- GI50 [29]: 13 nM
- TGI [29]: 28.4 nM
- GI50 [30]: < 10 nM
- GI50 [31]: 178 nM
- TGI [31]: 656 nM
- GI50 [32]: 15.1 nM
- TGI [32]: 45 nM
- GI50 [33]: 26.6 nM
- TGI [33]: 64.6 nM
- GI50 [34]: 175 nM
- TGI [34]: 438 nM
- GI50 [35]: 21.5 nM
- TGI [35]: 94.4 nM
- GI50 [36]: 16.1 nM
- TGI [36]: 59.7 nM
- GI50 [37]: 19.2 nM
- TGI [37]: 1200 nM
- GI50 [38]: 11.8 nM
- TGI [38]: 72.9 nM
- GI50 [39]: 24.7 nM
- TGI [39]: 83.2 nM
- GI50 [40]: 21.7 nM
- TGI [40]: 105 nM
- GI50 [41]: < 10 nM
- GI50 [42]: 16.1 nM
- TGI [42]: 45.6 nM
- GI50 [43]: 18.2 nM
- TGI [43]: 64.4 nM
- GI50 [44]: < 10 nM
- TGI [44]: 10.5 nM
- GI50 [45]: 18.8 nM
- TGI [45]: 142 nM
- GI50 [46]: 24.9 nM
- TGI [46]: 146 nM
- GI50 [47]: 10.7 nM
- TGI [47]: 16.7 nM
- GI50 [48]: 38.3 nM
- TGI [48]: 233 nM
- GI50 [49]: 59.9 nM
- TGI [49]: 215 nM
- GI50 [50]: 10.9 nM
- TGI [50]: 33.9 nM
- GI50 [51]: 58 nM
- TGI [51]: 505 nM
- GI50 [52]: 19.3 nM
- TGI [52]: 106 nM
- GI50 [53]: 40.6 nM
- TGI [53]: 179 nM
- TGI [54]: 3010 nM
- GI50 [55]: 13.3 nM
- TGI [55]: 70.4 nM
- GI50 [56]: 17.7 nM
- GI50 [57]: 120 nM
- TGI [57]: 441 nM
- GI50 [58]: 92.1 nM
- TGI [58]: 1190 nM
- GI50 [59]: 16.3 nM
- TGI [59]: 64.4 nM
